# Where two headings read alike, the source gives them in different places.
# Tests used:
# [1] = tested on: normal human T cells (PBMC); format: cell-based
# HLA-DR molecules = settings: 16 most prevalent HLA-DR molecules; cited from earlier work
Molecule,"antigen concentration at which the 10,000 cpm proliferation level was reached [1]",donors with primary T cell responses [1],number of HLA-DR molecules bound of 16 tested (HLA-DR molecules),"potency relative to TT 830-843 antigen for activation of T cell responses, on a molar basis [1]","donors with primary T cell responses ([1]; PBMC from three normal donors, after third round of stimulation)"
"CC[C@H](C)[C@H](NC(=O)CNC(=O)[C@@H](NC(=O)[C@H](Cc1ccccc1)NC(=O)[C@H](CCCCN)NC(=O)[C@H](CO)NC(=O)[C@H](CC(N)=O)NC(=O)[C@H](C)NC(=O)[C@H](CCCCN)NC(=O)[C@@H](NC(=O)[C@H](Cc1ccc(O)cc1)NC(=O)[C@@H](N)CCC(N)=O)[C@@H](C)CC)[C@@H](C)CC)C(=O)N[C@H](C(=O)N[C@@H](CCC(=O)O)C(=O)O)[C@@H](C)O [553.01, reference compound]","about 10,000 ng/ml",2 out of 3,seven of 16,,
aKXVAAWTLKAAa-NH2 [PADRE],,,,about 100 fold,all three donors

# Source: patent US20140147490A1 (published 2014)
